Results on 28 compounds are retold here after patent publication US20250195530A1, “POLQ INHIBITORS” (ASTRAZENECA AB, priority 2022, published 2025).

Amino acid sequences for entries named in this document (tags omitted). Residues count along the entry.
UniProt O75417, 1780-2590: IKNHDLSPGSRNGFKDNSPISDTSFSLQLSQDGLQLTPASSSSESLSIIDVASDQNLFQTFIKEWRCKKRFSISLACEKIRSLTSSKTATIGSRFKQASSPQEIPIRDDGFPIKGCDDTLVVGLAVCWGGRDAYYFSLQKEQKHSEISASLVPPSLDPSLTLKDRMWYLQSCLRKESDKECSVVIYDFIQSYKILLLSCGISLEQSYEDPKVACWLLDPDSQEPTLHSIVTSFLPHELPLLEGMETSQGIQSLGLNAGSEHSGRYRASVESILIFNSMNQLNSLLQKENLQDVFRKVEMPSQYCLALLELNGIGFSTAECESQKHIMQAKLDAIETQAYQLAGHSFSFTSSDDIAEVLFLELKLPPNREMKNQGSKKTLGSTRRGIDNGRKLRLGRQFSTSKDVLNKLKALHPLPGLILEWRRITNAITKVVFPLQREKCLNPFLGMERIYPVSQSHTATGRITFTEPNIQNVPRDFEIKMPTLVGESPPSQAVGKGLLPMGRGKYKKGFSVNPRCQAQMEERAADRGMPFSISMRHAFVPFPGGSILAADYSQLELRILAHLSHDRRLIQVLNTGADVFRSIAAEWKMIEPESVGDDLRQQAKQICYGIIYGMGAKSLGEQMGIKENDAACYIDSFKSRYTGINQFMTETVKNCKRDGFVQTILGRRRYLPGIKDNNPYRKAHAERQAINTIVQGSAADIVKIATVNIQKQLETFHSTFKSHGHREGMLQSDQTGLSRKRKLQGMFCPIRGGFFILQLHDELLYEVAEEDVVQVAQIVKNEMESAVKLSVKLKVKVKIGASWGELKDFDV

The target of this assay is isolated polymerase domain (I1780-V2590) of DNA polymerase theta (Polθ) (Homo sapiens (Human), UniProt O75417). The assay is described as follows: biochemical.

Usually IC50 stands for the concentration needed to halve the response being measured. `CC1(Oc2ncnc3c2nc(-c2cccc(OCCCC(C)(C)C(=O)O)c2Cl)n3Cc2cccc(Cl)c2)CC1` [Example T565, 5-(2-chloro-3-(9-(3-chlorobenzyl)-6-(1-methylcyclopropoxy)-9H-purin-8-yl)phenoxy)-2,2-dimethylpentanoic acid] had an IC50 of 7.94 nM.
Turning to `CC1(Oc2ncnc3c2nc(-c2ccc(OCCN4CCNCC4C(F)F)cc2Cl)n3Cc2ccccc2)CC1` (stereo not shown) [Example T567, 9-benzyl-8-(2-chloro-4-(2-(2-(difluoromethyl)piperazin-1-yl)ethoxy)phenyl)-6-(1-methylcyclopropoxy)-9H-purine], half-maximal inhibition (IC50) was put at 10 nM.
Regarding `CC1(Oc2ncnc3c2nc(-c2ccc(OCCCN4CC[C@@H](O)C4)cc2Cl)n3Cc2cc(C(F)F)ccn2)CC1` [Example T568, (R)-1-(3-(3-chloro-4-(9-((4-(difluoromethyl)pyridin-2-yl)methyl)-6-(1-methylcyclopropoxy)-9H-purin-8-yl)phenoxy)propyl)pyrrolidin-3-ol], inhibition was half-maximal at 6.31 nM (IC50).
Compound `Cc1ccnc(Cn2c(-c3ccc(CC(=O)N4CCC(O)CC4)cc3Cl)nc3c(OC4(C)CC4)ncnc32)c1` [Example T574, 2-(3-chloro-4-(6-(1-methylcyclopropoxy)-9-((4-methylpyridin-2-yl)methyl)-9H-purin-8-yl)phenyl)-1-(4-hydroxypiperidin-1-yl)ethan-1-one] had an IC50 of 7.94 nM.
The result for `Cc1ccnc(Cn2c(-c3ccc(CC(=O)N4CC[C@](C)(O)C4)cc3Cl)nc3c(OC4(C)CC4)ncnc32)c1` [Example T575, (S)-2-(3-chloro-4-(6-(1-methylcyclopropoxy)-9-((4-methylpyridin-2-yl)methyl)-9H-purin-8-yl)phenyl)-1-(3-hydroxy-3-methylpyrrolidin-1-yl)ethan-1-one] reads 6.31 nM; that for `Cc1ccnc(Cn2c(-c3ccc(OCC(=O)N4CCC[C@H]4CO)cc3Cl)nc3c(OC4(C)CC4)ncnc32)c1` [Example T576, (S)-2-(3-chloro-4-(6-(1-methylcyclopropoxy)-9-((4-methylpyridin-2-yl)methyl)-9H-purin-8-yl)phenoxy)-1-(2-(hydroxymethyl)pyrrolidin-1-yl)ethan-1-one], 10 nM.
To `CO[C@H]1CCN(C(=O)COc2ccc(-c3nc4c(OC5(C)CC5)ncnc4n3Cc3cc(C)ccn3)c(Cl)c2)C1` [Example T577, (S)-2-(3-chloro-4-(6-(1-methylcyclopropoxy)-9-((4-methylpyridin-2-yl)methyl)-9H-purin-8-yl)phenoxy)-1-(3-methoxypyrrolidin-1-yl)ethan-1-one] belongs 7.94 nM; to `Cc1ccnc(Cn2c(-c3ccc(OCC(=O)N4CC[C@@H](CO)C4)cc3Cl)nc3c(OC4(C)CC4)ncnc32)c1` [Example T578, (R)-2-(3-chloro-4-(6-(1-methylcyclopropoxy)-9-((4-methylpyridin-2-yl)methyl)-9H-purin-8-yl)phenoxy)-1-(3-(hydroxymethyl)pyrrolidin-1-yl)ethan-1-one], 10 nM.
In turn, `Cc1ccnc(Cn2c(-c3ccc(OCC(=O)N4CCC[C@@H]4CO)cc3Cl)nc3c(OC4(C)CC4)ncnc32)c1` [Example T579, (R)-2-(3-chloro-4-(6-(1-methylcyclopropoxy)-9-((4-methylpyridin-2-yl)methyl)-9H-purin-8-yl)phenoxy)-1-(2-(hydroxymethyl)pyrrolidin-1-yl)ethan-1-one] gave a 50% inhibitory concentration (IC50) of 10 nM.
`Cc1ccnc(Cn2c(-c3ccc(OCC(=O)N4CCC(O)CC4)cc3Cl)nc3c(OC4(C)CC4)ncnc32)c1` [Example T580, 2-(3-chloro-4-(6-(1-methylcyclopropoxy)-9-((4-methylpyridin-2-yl)methyl)-9H-purin-8-yl)phenoxy)-1-(4-hydroxypiperidin-1-yl)ethan-1-one] had an IC50 of 10 nM.
`Cc1ccnc(Cn2c(-c3ccc(OCC(=O)N4CC[C@@](C)(O)C4)cc3Cl)nc3c(OC4(C)CC4)ncnc32)c1` [Example T581, (R)-2-(3-chloro-4-(6-(1-methylcyclopropoxy)-9-((4-methylpyridin-2-yl)methyl)-9H-purin-8-yl)phenoxy)-1-(3-hydroxy-3-methylpyrrolidin-1-yl)ethan-1-one] had an IC50 of 10 nM.
`Cc1ccnc(Cn2c(-c3ccc(OCC(=O)N(C)CC4(O)CC4)cc3Cl)nc3c(OC4(C)CC4)ncnc32)c1` [Example T583, 2-(3-chloro-4-(6-(1-methylcyclopropoxy)-9-((4-methylpyridin-2-yl)methyl)-9H-purin-8-yl)phenoxy)-N-((1-hydroxycyclopropyl)methyl)-N-methylacetamide] gave an IC50 of 10 nM.
`Cc1ccnc(Cn2c(-c3ccc(O[C@H]4CCN(C(=O)[C@@H](C)O)C4)cc3Cl)nc3c(OC4(C)CC4)ncnc32)c1` [Example T584, (R)-1-((S)-3-(3-chloro-4-(6-(1-methylcyclopropoxy)-9-((4-methylpyridin-2-yl)methyl)-9H-purin-8-yl)phenoxy)pyrrolidin-1-yl)-2-hydroxypropan-1-one]: the IC50 is 7.94 nM.
As to `Cc1ccnc(Cn2c(-c3ccc(N4CCN5CCC[C@H]5C4)cc3Cl)nc3c(OC4(C)CC4)ncnc32)c1` [Example T585, (S)-8-(2-chloro-4-(hexahydropyrrolo[1,2-a]pyrazin-2(1H)-yl)phenyl)-6-(1-methylcyclopropoxy)-9-((4-methylpyridin-2-yl)methyl)-9H-purine], the IC50 was 6.31 nM.
`Cc1ccnc(Cn2c(-c3ccc(N4CCC5(CCN5)CC4)cc3Cl)nc3c(OC4(C)CC4)ncnc32)c1` [Example T586, 8-(2-chloro-4-(1,7-diazaspiro[3.5]nonan-7-yl)phenyl)-6-(1-methylcyclopropoxy)-9-((4-methylpyridin-2-yl)methyl)-9H-purine] had an IC50 of 7.94 nM.
To `Cc1ccnc(Cn2c(-c3ccc(OCCN4CC5(CCN5)C4)cc3Cl)nc3c(OC4(C)CC4)ncnc32)c1` [Example T587, 8-(4-(2-(1,6-diazaspiro[3.3]heptan-6-yl)ethoxy)-2-chlorophenyl)-6-(1-methylcyclopropoxy)-9-((4-methylpyridin-2-yl)methyl)-9H-purine] belongs 5.01 nM.
To `Cc1ccnc(Cn2c(-c3ccc(C(=O)N4CC[C@H](N(C)C)C4)cc3Cl)nc3c(OC4(C)CC4)ncnc32)c1` [Example T588, (S)-(3-chloro-4-(6-(1-methylcyclopropoxy)-9-((4-methylpyridin-2-yl)methyl)-9H-purin-8-yl)phenyl)(3-(dimethylamino)pyrrolidin-1-yl)methanone] belongs 5.01 nM; to `Cc1ccnc(Cn2c(-c3ccc(CC(=O)N4CCCNCC4)cc3Cl)nc3c(OC4(C)CC4)ncnc32)c1` [Example T589, 2-(3-chloro-4-(6-(1-methylcyclopropoxy)-9-((4-methylpyridin-2-yl)methyl)-9H-purin-8-yl)phenyl)-1-(1,4-diazepan-1-yl)ethan-1-one], 3.98 nM.
`Cc1ccnc(Cn2c(-c3ccc(OCCCN4CCCC4)cc3Cl)nc3c(OC4(C)CC4)ncnc32)c1` [Example T590, 8-(2-chloro-4-(3-(pyrrolidin-1-yl)propoxy)phenyl)-6-(1-methylcyclopropoxy)-9-((4-methylpyridin-2-yl)methyl)-9H-purine] gave an IC50 of 7.94 nM.
In turn, `Cc1ccnc(Cn2c(-c3ccc(CCN4CCC(O)CC4)cc3Cl)nc3c(OC4(C)CC4)ncnc32)c1` [Example T591, 1-(3-chloro-4-(6-(1-methylcyclopropoxy)-9-((4-methylpyridin-2-yl)methyl)-9H-purin-8-yl)phenethyl)piperidin-4-ol] gave an IC50 of 5.01 nM.
In turn, `Cc1ccnc(Cn2c(-c3ccc(OCCCN4CC[C@@H](O)C4)cc3Cl)nc3c(OC4(C)CC4)ncnc32)c1` [Example T592, (R)-1-(3-(3-chloro-4-(6-(1-methylcyclopropoxy)-9-((4-methylpyridin-2-yl)methyl)-9H-purin-8-yl)phenoxy)propyl)pyrrolidin-3-ol] showed an IC50 of 5.01 nM.
The result for `Cc1ccnc(Cn2c(-c3cccc(OCCCN4CC[C@@H](O)C4)c3Cl)nc3c(OC4(C)CC4)ncnc32)c1` [Example T593, (R)-1-(3-(2-chloro-3-(6-(1-methylcyclopropoxy)-9-((4-methylpyridin-2-yl)methyl)-9H-purin-8-yl)phenoxy)propyl)pyrrolidin-3-ol] reads 6.31 nM.
As for `Cc1ccnc(Cn2c(-c3ccc(OCCN4CCNC[C@@H]4C)cc3Cl)nc3c(OC4(C)CC4)ncnc32)c1` [Example T594, (S)-8-(2-chloro-4-(2-(2-methylpiperazin-1-yl)ethoxy)phenyl)-6-(1-methylcyclopropoxy)-9-((4-methylpyridin-2-yl)methyl)-9H-purine], it took 6.31 nM to reach half-maximal inhibition (IC50).
For the compound `Cc1cc(C)nc(Cn2c(-c3ccc(OCCN4CCNCC4)cc3Cl)nc3c(OC4(C)CC4)ncnc32)c1` [Example T595, 8-(2-chloro-4-(2-(piperazin-1-yl)ethoxy)phenyl)-9-((4,6-dimethylpyridin-2-yl)methyl)-6-(1-methylcyclopropoxy)-9H-purine], the midpoint of inhibition, the IC50, lay at 5.01 nM.
The compound `Cc1cnc(Cn2c(-c3ccc(OCCN4CCNCC4)cc3Cl)nc3c(OC4(C)CC4)ncnc32)cc1C` [Example T596, 8-(2-chloro-4-(2-(piperazin-1-yl)ethoxy)phenyl)-9-((4,5-dimethylpyridin-2-yl)methyl)-6-(1-methylcyclopropoxy)-9H-purine] gave an IC50 of 6.31 nM.
In the case of `Cc1ccnc(Cn2c(-c3ccc(OCCN4CCNCC4)cc3Cl)nc3c(OC4(C)CC4)ncnc32)c1C` [Example T597, 8-(2-chloro-4-(2-(piperazin-1-yl)ethoxy)phenyl)-9-((3,4-dimethylpyridin-2-yl)methyl)-6-(1-methylcyclopropoxy)-9H-purine], the midpoint of inhibition, the IC50, lay at 20 nM.
Turning to `Cc1ccnc(Cn2c(-c3ccc(C(=O)N4CC(N5CCCC5)C4)cc3Cl)nc3c(OC4(C)CC4)ncnc32)c1` [Example T602, (3-chloro-4-(6-(1-methylcyclopropoxy)-9-((4-methylpyridin-2-yl)methyl)-9H-purin-8-yl)phenyl)(3-(pyrrolidin-1-yl)azetidin-1-yl)methanone], the IC50 is 2.51 nM.
On to `Cc1ccnc(Cn2c(-c3ccc(CC(=O)N4CC(N5CCC5)C4)cc3Cl)nc3c(OC4(C)CC4)ncnc32)c1` [Example T603, 1-([1,3′-biazetidin]-1′-yl)-2-(3-chloro-4-(6-(1-methylcyclopropoxy)-9-((4-methylpyridin-2-yl)methyl)-9H-purin-8-yl)phenyl)ethan-1-one], for which the half-maximal inhibitory concentration (IC50) is 5.01 nM.
